System: mono-methyl arginine in RKO cells
Assay: RKO Methylation Assay, In Cell Western (ICW)
Format: cell-based
Details: 72 hours
From the text: RKO adherent cells were purchased from ATCC (American Type Culture Collection), Manassas, Va., USA. DMEM/Glutamax medium, penicillin-streptomycin, heat inactivated fetal bovine serum, 0.05% trypsin and D-PBS were purchased from Life Technologies, Grand Island, N.Y., USA. Odyssey blocking buffer, 800CW goat anti-rabbit IgG (H+L) antibody, and Licor Odyssey infrared scanner were purchased from Licor Biosciences, Lincoln, Nebr., USA. Mono-methyl arginine antibody was purchased from Cell Signaling Technology, Danvers, Mass., USA. Methanol was purchased from VWR, Franklin, Mass., USA. 10% Tween 20 was purchased from KPL, Inc., Gaithersburg, Md., USA. DRAQ5 was purchased from Biostatus Limited, Leicestershire, UK. […]
First, the ratio for each well was determined by:
Each plate included fourteen control wells of DMSO only treatment (minimum activation) as well as fourteen control wells for maximum activation treated with 20 μM of a reference compound. The average of the ratio values for each control type was calculated and used to determine the percent activation for each test well in the plate. […] Percent activation was determined and EC30 curves were generated using triplicate wells per concentration of compound.

Compound: CNCCN(C)Cc1c[nH]nc1-c1ccc(O[C@H]2C[C@H](OCCC3CCOCC3)C2)cc1 [Compound 155, N1,N2-dimethyl-N1-((3-(4-(3-(2-(tetrahydro-2H-pyran-4-yl)ethoxy)cyclobutoxy)phenyl)-1H-pyrazol-4-yl)methyl)ethane-1,2-diamine bis(2,2,2-trifluoroacetate)]
- ICW EC30: 1039 nM

Source: patent publication US20190077795A1, “ARGININE […] INHIBITORS AND USES THEREOF” (Epizyme, Inc., priority 2014, published 2019)
